We go through two compounds from patent publication US12448375B2, “Kinase inhibitors for the treatment of neurodegenerative diseases” (Ohio State Innovation Foundation, priority 2019, dated 2025).

Chains of the proteins cited; added tags and fusions are not shown. Lines headed by an entry give the natural chain unless they say otherwise; changes in a name come on top.
UniProt P53779: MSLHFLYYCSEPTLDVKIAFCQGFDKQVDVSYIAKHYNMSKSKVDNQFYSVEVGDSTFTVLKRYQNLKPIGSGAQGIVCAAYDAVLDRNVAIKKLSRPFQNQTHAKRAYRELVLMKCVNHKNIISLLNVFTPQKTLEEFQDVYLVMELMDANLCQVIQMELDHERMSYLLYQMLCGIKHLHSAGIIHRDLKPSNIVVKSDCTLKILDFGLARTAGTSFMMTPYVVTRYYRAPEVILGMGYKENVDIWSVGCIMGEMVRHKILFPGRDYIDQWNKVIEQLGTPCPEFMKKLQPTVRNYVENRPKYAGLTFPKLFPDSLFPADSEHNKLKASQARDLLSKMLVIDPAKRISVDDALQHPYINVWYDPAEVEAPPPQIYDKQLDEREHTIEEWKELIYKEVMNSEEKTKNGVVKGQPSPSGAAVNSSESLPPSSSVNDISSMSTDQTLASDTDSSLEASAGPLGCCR
UniProt P45983: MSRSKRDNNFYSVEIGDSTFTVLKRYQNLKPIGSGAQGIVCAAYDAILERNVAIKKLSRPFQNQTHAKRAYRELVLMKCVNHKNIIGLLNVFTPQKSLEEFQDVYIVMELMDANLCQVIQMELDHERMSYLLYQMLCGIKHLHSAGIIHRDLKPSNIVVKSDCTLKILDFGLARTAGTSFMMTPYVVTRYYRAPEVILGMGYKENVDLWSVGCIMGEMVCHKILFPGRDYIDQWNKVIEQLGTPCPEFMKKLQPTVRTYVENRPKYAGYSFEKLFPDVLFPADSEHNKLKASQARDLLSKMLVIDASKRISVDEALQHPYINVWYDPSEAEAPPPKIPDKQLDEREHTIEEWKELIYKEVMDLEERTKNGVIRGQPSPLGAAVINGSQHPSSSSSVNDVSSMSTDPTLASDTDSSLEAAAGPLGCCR
UniProt Q16539, whole entry: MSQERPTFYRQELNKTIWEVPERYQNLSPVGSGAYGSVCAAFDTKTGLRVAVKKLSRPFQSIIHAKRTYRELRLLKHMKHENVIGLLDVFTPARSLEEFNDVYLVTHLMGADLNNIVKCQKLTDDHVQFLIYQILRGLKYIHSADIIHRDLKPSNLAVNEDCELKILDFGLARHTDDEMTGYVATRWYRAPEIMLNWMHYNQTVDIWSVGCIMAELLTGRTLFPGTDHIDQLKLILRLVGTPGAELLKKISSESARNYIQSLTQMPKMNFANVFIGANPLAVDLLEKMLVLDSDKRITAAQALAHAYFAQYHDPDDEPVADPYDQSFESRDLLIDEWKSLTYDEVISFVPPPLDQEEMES

Where only a bound is given, the exact number is not on record here.

What all share (type): biochemical
The target in one assay is T1, JNK3 (Homo sapiens, UniProt P53779).
T1 construct: purchased Reaction Biology Corp
As to the kind of experiment: HotSpot Kinase Assay (Reaction Biology Corp.), anti-JNK3 activity. How it is done:
(§1) The anti-JNK3 activity of compounds prepared as in the previous examples was evaluated using a Reaction Biology Corp. HotSpot Kinase Assay. Base reaction buffer was 20 mM HEPES (4-(2-hydroxyethyl)-1-piperazineethanesulfonic acid) at pH 7.5 with 10 mM MgCl2, 1 mM EGTA (ethylene glycol-bis(β-aminoethyl ether)-N,N,N′,N′-tetracetic acid), 0.02% Brij™ 35, 0.02 mg/mL BSA (bovine serum albumin), 0.1 mM Na3VO4, 2 mM DTT (dithiothreitol), and 1% DMSO. Required cofactors were added individually to each kinase reaction.
(§2) Activity against related enzymes JNK1 and P38a was further assessed using the same assay.

The target of a further assay is T2, JNK1 (Homo sapiens, UniProt P45983).
T2 construct: purchased Reaction Biology Corp
As to the kind of experiment: HotSpot Kinase Assay, JNK1. How it is done: as §1, §2

The target of another assay is T3, p38a (Homo sapiens, UniProt Q16539).
T3 construct: purchased Reaction Biology Corp
The assay can be described thus: HotSpot Kinase Assay, P38a. The method, then:
as §1, §2

As usually defined, the IC50 is the midpoint of a concentration-inhibition curve. Read a high IC50 as weaker potency. Take `Cc1nc2c(cnn2-c2csc(C(=O)NC3COC3)c2)cc1Nc1c(F)cccc1Cl` [Compound 101, 4-(5-((2-chloro-6-fluorophenyl)amino)-6-methyl-1H-pyrazolo[3,4-b]pyridin-1-yl)-N-(oxetan-3-yl)thiophene-2-carboxamide]: the figures for the IC50 against JNK3, on JNK1 and against p38a were under 200 nM, 200 to 1000 nM and 200 to 1000 nM, respectively.
As for `CNC(=O)c1cc(-n2ncc3cc(Oc4ccccc4Cl)ccc32)cs1` [Compound 8, 4-(5-(2-chlorophenoxy)-1H-indazol-1-yl)-N-methylthiophene-2-carboxamide], the IC50 is under 200 nM at JNK3, over 1000 nM against JNK1 and 200 to 1000 nM against p38a.
